Laboratory results: paper PMC2844127 (Journal of medicinal chemistry, 2010)

Protein sequences, listed by entry. Tags and fused reporters are not part of them.
UniProt P19020, whole entry: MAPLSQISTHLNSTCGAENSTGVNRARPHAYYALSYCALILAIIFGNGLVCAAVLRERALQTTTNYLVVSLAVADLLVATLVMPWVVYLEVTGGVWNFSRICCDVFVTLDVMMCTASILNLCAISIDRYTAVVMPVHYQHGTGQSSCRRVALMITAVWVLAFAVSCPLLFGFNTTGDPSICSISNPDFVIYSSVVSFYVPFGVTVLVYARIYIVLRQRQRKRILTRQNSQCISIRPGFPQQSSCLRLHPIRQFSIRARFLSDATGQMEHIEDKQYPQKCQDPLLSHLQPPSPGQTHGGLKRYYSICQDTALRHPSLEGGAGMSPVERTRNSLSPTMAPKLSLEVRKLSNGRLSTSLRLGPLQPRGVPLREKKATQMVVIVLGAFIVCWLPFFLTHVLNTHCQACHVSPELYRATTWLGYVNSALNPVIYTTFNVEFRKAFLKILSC

Target: dopamine rD3 receptor (Rattus norvegicus, UniProt P19020)
Settings: ratio of Ki D2L to Ki D3

`CCCN(CCC)C1CCc2c(O)cccc2C1` (single isomer, unassigned; (-)) [(−)-5-OH-DPAT, 5-Hydroxy-2-(dipropylamino)tetralin] showed a D2L/D3 of 43.2.
